# In patent publication US10517864B2 (priority 2014, dated 2019):
# Like-named read-outs stand apart in the source and are kept apart here.
# Format: physicochemical
# Settings: for Buprenorphine HCl Solubility: room temperature
# Protocol: Excess amount of buprenorphine or buprenorphine hydrochloride was weighed into a 1.8 cc HPLC vial containing about 0.5 g selected solvent. The vial was capped and placed on a jar mill rotating at 100 rpm at room temperature overnight. It was then centrifuged and part of top clear solution was weighed out and diluted in 1% acetic acid aqueous solution. Buprenorphine content in the solution was measured using the HPLC method described above.
substance,measurement,setting,value
Buprenorphine HCl,Buprenorphine HCl Solubility,80/20 NMP/water (w/w),"14.9 %, w/w"
same,Buprenorphine HCl Solubility,DMAC,"11.3 %, w/w"
same,Buprenorphine HCl Solubility,DMSO,"19.7 %, w/w"
same,buprenorphine hydrochloride solution that can be prepared,"NMP, DMSO, or DMAC",more than 10 % by weight
same,Buprenorphine HCl Solubility,NMP,"17.9 %, w/w"
